Results taken from patent US20200010479A1, “INHIBITORS OF MICROBIAL BETA-GLUCURONIDASE ENZYMES AND USES THEREOF” (THE UNIVERSITY OF NORTH CAROLINA AT CHAPEL HILL, priority 2017, published 2020).

The chains behind the UniProt entries cited, without tags or fusion partners. Where a name states a change or a piece, a line headed by the entry shows the natural chain unless it says otherwise.
UniProt P05804: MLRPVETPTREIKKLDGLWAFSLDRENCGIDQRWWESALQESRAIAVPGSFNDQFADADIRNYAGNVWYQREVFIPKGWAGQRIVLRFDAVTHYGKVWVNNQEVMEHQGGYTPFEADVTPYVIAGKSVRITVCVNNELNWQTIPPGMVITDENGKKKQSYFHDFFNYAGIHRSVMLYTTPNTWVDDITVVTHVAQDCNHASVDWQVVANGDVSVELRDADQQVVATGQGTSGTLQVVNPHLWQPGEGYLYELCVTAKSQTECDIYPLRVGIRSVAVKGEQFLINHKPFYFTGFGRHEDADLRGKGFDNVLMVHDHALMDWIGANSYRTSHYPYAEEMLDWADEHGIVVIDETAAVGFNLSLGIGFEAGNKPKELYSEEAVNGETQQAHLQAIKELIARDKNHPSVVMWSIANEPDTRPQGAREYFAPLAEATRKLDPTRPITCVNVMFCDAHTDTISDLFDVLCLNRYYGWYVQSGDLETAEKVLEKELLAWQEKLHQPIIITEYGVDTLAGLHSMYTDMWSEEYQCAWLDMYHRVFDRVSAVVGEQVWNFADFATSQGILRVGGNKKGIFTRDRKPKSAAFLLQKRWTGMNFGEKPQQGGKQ

Biological target: E. coli GUS (Escherichia coli, UniProt P05804)
Format: biochemical
Conditions: purified L1 enzyme, in vitro

In the case of `CCOc1ccc(NC(=S)N(CCO)Cc2cc3cc(C)cc(C)c3[nH]c2=O)cc1` [Inh1, reference compound], the “inhibition of SN-38-G processing (apparent kcat)” value is reported as “strong activity”.
